Test results reported in patent publication US20260193672A1, “INDUCIBLE CELL SUICIDE SWITCHES AND THEIR USE IN CELL AND GENE THERAPIES” (The General Hospital Corporation, priority 2022, published 2026).

What was measured:
[1] = tested on: Jurkat cells expressing the switch; experiment: DNA damage assay (gamma-H2AX intracellular flow); assay type: cell-based; conditions: drug administered overnight
Text: To determine whether promoter strength modifies ICADdegron-CAD suicide switch efficiency, Jurkat cells were transduced to express the ICAD-degron 2A CAD p.R11W suicide switch was expressed, driven by an EF1alpha or PGK promoter.

[2] = tested on: primary human CAR T cells; experiment: Competitive proliferation assay of suicide switch-transduced versus untransduced cells; assay type: cell-based; conditions: with lenalidomide
Text: Cells were stimulated weekly with an equal number of irradiated K562 cells transduced to express CD3 and CD28 scFvs. Flow cytometry was used to enumerate the percentage of mTagBFP2+ cells on days 0, 7, and 14.

[3] = tested on: ICAD-degron fusion protein; conditions: 4 hours of exposure to 1000 nM lenalidomide, ICAD-degron-T2A-CADp.R11W-FLAG system

Nc1cccc2c1CN(C1CCC(=O)NC1=O)C2=O (stereo not shown) [lenalidomide]
concentration at which DNA damage sensing was activated [1]: 0.1 nM
concentration at which DNA damage sensing was fully activated [1]: 1 nM
suicide switch T cell proliferation in competition with untransduced cells [2]: significantly depleted
effect on abundance of ICAD-degron fusion protein [3]: specifically destabilized the ICAD-degron fusion protein
